Patent publication US20060217370A1, “Compounds useful for the treatment and prevention of pain and screening methods therefor” (priority 2005, published 2006)

Chains of the proteins cited; added tags and fusions are not shown. Residues count along the entry.
UniProt Q96LB2, whole entry: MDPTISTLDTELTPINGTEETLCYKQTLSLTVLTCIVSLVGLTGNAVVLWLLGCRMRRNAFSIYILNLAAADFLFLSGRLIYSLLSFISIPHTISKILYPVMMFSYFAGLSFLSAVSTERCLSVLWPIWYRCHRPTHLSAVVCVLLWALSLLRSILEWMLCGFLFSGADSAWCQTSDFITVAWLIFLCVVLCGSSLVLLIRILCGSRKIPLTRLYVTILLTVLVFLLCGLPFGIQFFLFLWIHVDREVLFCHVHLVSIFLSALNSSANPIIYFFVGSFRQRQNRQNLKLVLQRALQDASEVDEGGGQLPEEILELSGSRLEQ
UniProt Q96LB1, whole entry: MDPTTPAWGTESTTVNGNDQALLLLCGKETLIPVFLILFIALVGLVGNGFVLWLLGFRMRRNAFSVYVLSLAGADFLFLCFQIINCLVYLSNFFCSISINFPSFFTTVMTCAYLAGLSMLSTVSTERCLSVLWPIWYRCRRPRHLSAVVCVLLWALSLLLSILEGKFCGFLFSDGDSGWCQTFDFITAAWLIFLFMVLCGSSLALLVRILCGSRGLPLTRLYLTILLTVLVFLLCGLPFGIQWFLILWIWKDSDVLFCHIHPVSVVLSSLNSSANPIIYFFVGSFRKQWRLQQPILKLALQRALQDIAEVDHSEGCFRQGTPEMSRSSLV
UniProt Q4QXU5, whole entry: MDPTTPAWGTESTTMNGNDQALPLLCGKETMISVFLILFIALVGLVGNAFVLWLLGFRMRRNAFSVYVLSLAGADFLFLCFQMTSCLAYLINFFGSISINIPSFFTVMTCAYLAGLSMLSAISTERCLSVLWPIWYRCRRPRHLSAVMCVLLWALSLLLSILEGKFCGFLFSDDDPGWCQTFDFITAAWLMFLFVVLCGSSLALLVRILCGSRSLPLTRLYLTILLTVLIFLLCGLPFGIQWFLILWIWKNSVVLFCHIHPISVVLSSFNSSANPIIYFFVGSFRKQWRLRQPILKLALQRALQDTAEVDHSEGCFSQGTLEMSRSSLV
UniProt Q1L4E8, 1-322: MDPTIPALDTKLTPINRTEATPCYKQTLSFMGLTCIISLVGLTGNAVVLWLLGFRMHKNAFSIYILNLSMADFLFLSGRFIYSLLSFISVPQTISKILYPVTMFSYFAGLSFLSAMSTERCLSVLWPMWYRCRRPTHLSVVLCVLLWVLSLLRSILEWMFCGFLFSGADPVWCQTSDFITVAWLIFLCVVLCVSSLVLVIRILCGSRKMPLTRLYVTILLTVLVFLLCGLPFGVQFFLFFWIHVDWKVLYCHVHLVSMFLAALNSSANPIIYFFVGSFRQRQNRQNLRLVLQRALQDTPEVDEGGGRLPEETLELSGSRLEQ

Legend:
Assay in all cases: Receptor Selection and Amplification Technology (R-SAT) functional receptor assay
[1] = target: human MrgX1 (Homo sapiens, UniProt Q96LB2); settings: for Human-X1 Eff(%): efficacy relative to Bam22, nr = no response up to 10 micromolar
Protocol: (§1) The functional receptor assay, Receptor Selection and Amplification Technology (R-SAT), was used to investigate the pharmacological properties of test compounds on MRGX1 or MRGX2 receptors. R-SAT is disclosed in U.S. Pat. Nos. 5,707,798, 5,912,132, and 5,955,281, each of which is incorporated by reference herein in its entirety, including any drawings.
(§2) Briefly, NIH3T3 cells were grown in 96-well tissue culture plates to 70-80% confluence. Cells were transfected for 16-20 h with plasmid DNAs using Polyfect (Qiagen Inc.) and the manufacturer's protocols. R-SATs were generally performed with 4 ng/well of receptor and 20 ng/well of β-galactosidase plasmid DNA. The human MrgX1, simian MrgX1, human MrgX2 and simian MrgX2 receptor genes were amplified by PCR from genomic DNA using oligodeoxynucleotide primers based on SEQ ID NO:1, SEQ ID NO:3, SEQ ID NO:5, SEQ ID NO:7, or SEQ ID NO:9. For large-scale transfections, cells were transfected for 16-20 h, then trypsinized and frozen in DMSO. Frozen cells were later thawed, plated at ˜10,000 cells per well of a 96 half-area well plate that contained test compound. With both methods, cells were then grown in a humidified atmosphere with 5% ambient CO2 for five days. The medium was then removed from the plates and marker gene activity was measured by the addition of the β-galactosidase substrate o-nitrophenyl β-galactopyranoside (ONPG, in PBS with 0.5% NP-40). The resulting colorimetric reaction was measured in a spectrophotometric plate reader (Titertek Inc.) at 420 nm. All data were analyzed using the computer program XLFit (IDBSm). Efficacy is defined as the percent maximal activation compared to activation by a control compound (BAM22 in the case of human or simian MRGX1, STIA or Cortistatin-14 in the case of human or simian MRGX2). pEC50 is the negative of log(EC50), where EC50 is the calculated molar concentration of test compound that produces 50% of maximum activation.
(§3) Efficacy is reported relative to the ligands Bam22 for MrgX1 and STIA for MrgX2.

[2] = target: human MrgX2 (Homo sapiens, UniProt Q96LB1); settings: for Human-X2 Eff(%): efficacy relative to STIA, nr = no response up to 10 micromolar
Protocol: as §1, §2, §3

[3] = target: simian MrgX2 (Macaca mulatta, UniProt Q4QXU5, cells depend on it, form not given, species not given); settings: for Monkey-X2 Eff(%): efficacy relative to STIA, nr = no response up to 10 micromolar
Protocol: as §1, §2, §3

[4] = target: simian MrgX1 (Macaca mulatta, UniProt Q1L4E8, cells depend on it, form not given, species not given); settings: for Monkey-X1 Eff(%): efficacy relative to Bam22, nr = no response up to 10 micromolar; for Monkey-X1 pEC50: transfected NIH3T3 cells
Protocol: as §1, §2, §3

With `CC(=O)NC1CCN(c2ccc3c(c2)-c2nc4cc(C(=O)N5CCN(c6ccc(F)cc6)CC5)ccc4n2[C@@H](C(C)C)C(=O)N3)C1` (stereo partly shown) the “Human-X1 Eff(%)” value [1] was 72%, the “Human-X1 pEC50” value ([1]; transfected NIH3T3 cells) was 7.0 and the “Human-X2 Eff(%)” value [2] was “nr”. For the same compound, the “Monkey-X2 Eff(%)” value [3] was “nr”, the “Monkey-X1 Eff(%)” value [4] was 89% and the “Monkey-X1 pEC50” value [4] was 5.6.
With `CC(C)[C@H]1C(=O)Nc2ccc(NC3CCCCCC3)cc2-c2nc3cc(C(=O)N4CCCN(C)CC4)ccc3n21` the “Human-X1 Eff(%)” value [1] was “nr”, the “Human-X2 Eff(%)” value [2] was 95% and the “Human-X2 pEC50” value ([2]; transfected NIH3T3 cells) was 6.7. The “Monkey-X2 Eff(%)” value [3] was 44%, the “Monkey-X2 pEC50” value ([3]; transfected NIH3T3 cells) was 6.3 and the “Monkey-X1 Eff(%)” value [4] was 41%. For the same compound, the “Monkey-X1 pEC50” value [4] was 5.8.
